## scFv variants of Ab-14 (light chain) against a SARS-CoV-2 spike peptide

Values reported by Engelhart et al. 2022, doi:10.1038/s41597-022-01779-4 (FLAb copy).

Binding partner: SARS-CoV-2 spike HR2 peptide, sequence PDVDLGDISGINAS.

Ab-14 is the parent antibody, in scFv form: VH, then a (GGGGS)3 linker, then VL. The heavy chain is unchanged in all variants.
VH: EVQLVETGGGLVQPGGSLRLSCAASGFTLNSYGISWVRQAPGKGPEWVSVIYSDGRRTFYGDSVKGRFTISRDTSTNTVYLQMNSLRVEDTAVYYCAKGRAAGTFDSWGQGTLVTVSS
VL: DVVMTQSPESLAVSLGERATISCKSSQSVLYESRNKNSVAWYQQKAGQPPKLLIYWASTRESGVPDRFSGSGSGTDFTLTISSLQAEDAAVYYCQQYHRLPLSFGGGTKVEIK

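The starting antibody came from a phage panning campaign against this peptide. Library AAYL50 holds single substitutions and randomly drawn double and triple substitutions in the CDRs. Affinity was read by AlphaSeq, a pooled yeast mating assay with surface-displayed partners. Pairs that bind mate more often; barcode pairs of the diploids are counted by sequencing. Each replicate has its own calibration line, from reference interactions of the BCL2 family. There are three technical replicates.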

Variants are written as CDR1, CDR2 and CDR3 of the light chain (limits as in the source). Parent: KSSQSVLYESRNKNSVA, WASTRES, QQYHRLPLS.
Affinities are written as log10 Kd with Kd in nM; a lower number is a better binder.
Replicates are averaged; those with no signal do not enter the mean.
"no signal" marks a missing value. The strain was present, yet no cells mated with the target were sequenced in any replicate, which points to weak or no binding.

Variant KSSQSVLYCSRVKNSVA | WASTRES | QMYHRLPLS gave no signal (0 of 3 replicates; controls 0 of 9).
Variant KSSQSVLYESANKNSKA | WASTRES | QQYERLPLS gave 4.64 (2 of 3 replicates; controls 4 of 9).
Variant KSSQSVLLESRNKNSVA | WASTREA | QQYHRVPLS gave 1.43 (3 of 3 replicates; controls 3 of 9).
Variant KSSQSVLYESRNKNSVA | WASTRES | QQYERGPLS gave 3.96 (1 of 3 replicates; controls 0 of 9).
Variant KSSQRVLYESRNKNSVA | WASTGES | QQYHRLPLS gave 4.51 (3 of 3 replicates; controls 5 of 9).
Variant KSSQSVQYNSRNKNSVA | WASRRES | QQYHRLPLS gave 4.09 (3 of 3 replicates; controls 5 of 9).
Variant KSSQSVLYESRNENSVT | WASTRES | QQYHRLPVS gave no signal (0 of 3 replicates; controls 0 of 9).
Variant KSSQSVFYESRNKNDVA | WFSTRES | QQYHRLPLS gave 4.11 (2 of 3 replicates; controls 5 of 9).
Variant KSSQSVLYESRNKNSVA | WCSTRES | QCYHRLPLS gave 3.70 (1 of 3 replicates; controls 4 of 9).
Variant KSSQSVLYESLNKNSVA | WASTRES | QQYWRLDLS gave 0.50 (3 of 3 replicates; controls 1 of 9).
Variant KSSQSVLYNSRNKNSVA | WASTRED | QQYHRNPLS gave 1.18 (3 of 3 replicates; controls 0 of 9).
Variant KSSQSVLQEMRNKNAVA | WASTRES | QQYHRLPLS gave 0.69 (3 of 3 replicates; controls 2 of 9).
Variant KSSQSVLYESRNKNSVA | WASTRES | FQYGRKPLS gave no signal (0 of 3 replicates; controls 1 of 9).
Variant KSSQSVLYESRNKNIVA | KASKRES | QQYHRLPLS gave no signal (0 of 3 replicates; controls 0 of 9).
Variant KSSQSVLYEHRNKNSVA | WASTYES | QQYHNLPLS gave no signal (0 of 3 replicates; controls 0 of 9).
Variant RSVQSVLYESRNKNSVA | WASTRES | QKYHRLPLS gave 4.65 (1 of 3 replicates; controls 3 of 9).
Variant KSSQSVLYYSLNKNSNA | WASTRES | QQYHRLPLS gave 4.44 (1 of 3 replicates; controls 0 of 9).
Variant KSSQPVLYESRNKRSVA | WASTRES | QQIHRLPLS gave 3.77 (1 of 3 replicates; controls 0 of 9).
Variant SSSQSVLYESRFKNSVA | WASTREN | QQYHRLPLS gave 2.15 (1 of 3 replicates; controls 0 of 9).
Variant KSSQSYLYESRNKNSVV | WASTRES | EQYHRLPLS gave no signal (0 of 3 replicates; controls 3 of 9).
Variant KSSQSVLYESGNKNSVA | FASTRES | QQYHRLCLS gave 1.34 (3 of 3 replicates; controls 5 of 9).
Variant KHSQSVLYESRNKNSFA | WASTRES | QQYHRLPLC gave 4.55 (2 of 3 replicates; controls 5 of 9).
Variant KSSQSVLYESRNYQSVA | WASTRES | QQYHQLPLS gave 1.78 (3 of 3 replicates; controls 0 of 9).
Variant KSSQSVLYESRNKCSVA | WESTRHS | QQYHRLPLS gave 3.59 (3 of 3 replicates; controls 5 of 9).
Variant KSMQSVLYESRNKNSVS | WASTRES | QQYHRLGLS gave no signal (0 of 3 replicates; controls 0 of 9).
Variant KSSSSVLYESRNKNSVA | WASTRES | QQYHRKPLP gave no signal (0 of 3 replicates; controls 1 of 9).
Variant KSVQSVLYESRNKNSVA | WASLRES | MQYHRLPLS gave no signal (0 of 3 replicates; controls 0 of 9).
Variant KCSQSVLYESGNKNSVA | WASTRES | QQYHRLPCS gave 3.69 (1 of 3 replicates; controls 2 of 9).
Variant KSSQSVLYESRNKNSVA | WASTRED | RQYHRLPLS gave 2.22 (3 of 3 replicates; controls 2 of 9).
Variant KYSQSVLYESRSKNSVA | WDSTRES | QQYHRLPLS gave 2.87 (3 of 3 replicates; controls 0 of 9).
Variant KSSQSVTYESRNKNSVP | WASTPES | QQYHRLPLS gave no signal (0 of 3 replicates; controls 0 of 9).
Variant KSSQVVLYESWNKNSVA | WTSTRES | QQYHRLPLS gave 2.58 (3 of 3 replicates; controls 3 of 9).
Variant KSSQSVLYESRPKNSVQ | WASTRES | RQYHRLPLS gave 5.54 (2 of 3 replicates; controls 1 of 9).
Variant KSPQSVLYESRPKNSVA | WASTRES | MQYHRLPLS gave 2.09 (3 of 3 replicates; controls 1 of 9).

Extract of 3 entries:

| CDR-L1 | CDR-L2 | CDR-L3 | log10 Kd (nM), mean | detected | empty controls |
|---|---|---|---|---|---|
| KSSQSVTYESRNKNSVP | WASTPES | QQYHRLPLS | no signal | 0 of 3 | 0 of 9 |
| KSSQSVLYESRNKNSVA | WCSTRES | QCYHRLPLS | 3.70 | 1 of 3 | 4 of 9 |
| KSSQSVLYESRNKNSVA | WASTRES | QQYERGPLS | 3.96 | 1 of 3 | 0 of 9 |

Nonspecific signal, from three strains lacking the peptide, appeared in 18% of pairings of library AAYL50, centred on 4.19 (5% of these signals below 2.99); values are not corrected for it. Also given: how often the same scFv was detected with the empty control strains.